Reference: patent US9617267B2, “Compounds and methods for kinase modulation, and indications therefor” (Plexxikon Inc., priority 2009, dated 2017)

The chains behind the UniProt entries cited, without tags or fusion partners.
UniProt P05177, whole entry: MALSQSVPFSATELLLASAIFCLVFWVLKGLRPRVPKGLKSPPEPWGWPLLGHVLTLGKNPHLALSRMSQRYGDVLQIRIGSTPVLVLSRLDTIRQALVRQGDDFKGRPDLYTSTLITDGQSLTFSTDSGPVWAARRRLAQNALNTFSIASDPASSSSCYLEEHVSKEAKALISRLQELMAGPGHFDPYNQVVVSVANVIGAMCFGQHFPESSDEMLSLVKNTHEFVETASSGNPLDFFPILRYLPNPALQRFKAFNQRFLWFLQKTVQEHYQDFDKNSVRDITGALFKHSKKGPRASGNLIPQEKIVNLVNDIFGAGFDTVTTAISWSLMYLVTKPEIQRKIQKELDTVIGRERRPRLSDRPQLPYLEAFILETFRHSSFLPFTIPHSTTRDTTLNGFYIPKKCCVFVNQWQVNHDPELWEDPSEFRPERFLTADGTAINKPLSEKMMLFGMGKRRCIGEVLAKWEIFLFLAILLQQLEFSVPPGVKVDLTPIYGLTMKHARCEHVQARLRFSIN
UniProt P08684, whole entry: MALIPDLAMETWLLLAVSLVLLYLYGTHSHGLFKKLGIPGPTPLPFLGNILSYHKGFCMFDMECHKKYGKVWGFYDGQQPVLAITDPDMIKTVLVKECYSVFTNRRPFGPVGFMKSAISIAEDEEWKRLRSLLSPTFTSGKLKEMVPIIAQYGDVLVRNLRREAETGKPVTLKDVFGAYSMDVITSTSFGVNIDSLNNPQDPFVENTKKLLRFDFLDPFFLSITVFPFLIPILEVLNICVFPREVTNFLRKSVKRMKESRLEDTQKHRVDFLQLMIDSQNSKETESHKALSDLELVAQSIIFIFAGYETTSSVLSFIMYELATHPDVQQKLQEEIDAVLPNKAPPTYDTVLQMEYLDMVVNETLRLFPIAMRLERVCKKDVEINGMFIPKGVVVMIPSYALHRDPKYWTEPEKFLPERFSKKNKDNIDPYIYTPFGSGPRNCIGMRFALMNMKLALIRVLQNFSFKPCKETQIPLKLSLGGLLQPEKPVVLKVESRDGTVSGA
UniProt P11712, whole entry: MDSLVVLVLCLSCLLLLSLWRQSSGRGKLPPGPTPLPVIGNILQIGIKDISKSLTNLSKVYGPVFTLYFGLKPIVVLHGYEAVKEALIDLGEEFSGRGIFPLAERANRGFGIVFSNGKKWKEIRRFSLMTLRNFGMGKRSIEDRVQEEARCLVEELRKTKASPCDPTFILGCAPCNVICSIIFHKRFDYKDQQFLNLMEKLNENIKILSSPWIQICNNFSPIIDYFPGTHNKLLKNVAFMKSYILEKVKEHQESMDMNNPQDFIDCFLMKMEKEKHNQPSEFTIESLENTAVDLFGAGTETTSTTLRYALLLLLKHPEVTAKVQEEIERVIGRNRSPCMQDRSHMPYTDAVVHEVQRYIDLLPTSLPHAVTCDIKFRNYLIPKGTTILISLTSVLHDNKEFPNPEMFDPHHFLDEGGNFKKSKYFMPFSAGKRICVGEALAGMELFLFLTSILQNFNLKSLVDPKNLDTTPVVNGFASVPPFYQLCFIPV

Key:
CYP1A2 = CYP1A2 (Homo sapiens (Human), UniProt P05177); experiment: CYP enzyme inhibition, fluorescent substrate (CEC); settings: read-out: Cyp IC50 1A2
Description: (§1) CYP (Cytochrome P450) enzymes are the major drug metabolizing enzymes present in the liver. The inhibition of CYP enzyme activity (IC50) for each of CYP1A2, CYP2C19, CYP2C9, CYP2D6, CYP3A4(BFC) and CYP3A4(BQ) is determined for compounds, where inhibition of metabolism of a known substrate leads to a decrease in the fluorescence of the metabolized product. The fluorescence of the product is monitored as a function of compound concentration.
Compounds are dissolved in dimethyl sulfoxide to a concentration of 100 mM. These are diluted 1 μL into 82 μL of acetonitrile. An 11 μL aliquot of this solution is then added to 204 μL of cofactor mix (1.3% NADPH Regeneration system Solution A, 1.04% NADPH Regeneration system Solution B from BD Biosciences, 5% acetonitrile and 0.05% dimethyl sulfoxide). These are then serially diluted 1:1 (160 μL to 160 μL co-factor mix) for a total of 10 points. A 10 μL aliquot of this final mixture is dispensed into 384 well assay plates and incubated for 10 minutes at 37° C. […] (CYP1A2-15 min; CYP2C9-45 min; CYP2C19, 2D6 and 3A4-30 min) and read in a Tecan Safire 2 plate reader (CYP1A2, 2C19 and 3A4 409 ex/460 em; CYP2C9 and 2D6 409 ex/530 em). […]

CYP3A4(BFC) = CYP3A4(BFC) (Homo sapiens (Human), UniProt P08684); experiment: CYP enzyme inhibition, fluorescent substrate BFC; settings: read-out: Cyp IC50 3A4(BFC)
Description: as §1
(§2) Compounds are dissolved in dimethyl sulfoxide to a concentration of 100 mM. These are diluted 1 μL into 82 μL of acetonitrile. […] These are then serially diluted 1:1 (160 μL to 160 μL co-factor mix) for a total of 10 points. A 10 μL aliquot of this final mixture is dispensed into 384 well assay plates and incubated for 10 minutes at 37° C. […] Assay plates are incubated at 37° C. […] The signal versus compound concentration is used to determine the IC50. The enzymes and substrates for this assay are obtained from BD Biosciences.

CYP2C9 = CYP2C9 (Homo sapiens (Human), UniProt P11712); experiment: CYP enzyme inhibition, fluorescent substrate (MFC); settings: read-out: Cyp IC50 2C9
Description: as §1, §2

Row | Compound | IC50 (CYP1A2) | IC50 (CYP3A4(BFC)) | IC50 (CYP2C9)
1 | CCCS(=O)(=O)Nc1ccc(F)c(C(=O)c2c[nH]c3ncnc(CC(C)C)c23)c1F [P-1014, Propane-1-sulfonic acid [2,4-difluoro-3-(4-isobutyl-7H-pyrrolo[2,3-d]pyrimidine-5-carbonyl)-phenyl]-amide] | > 10 µM | > 10 µM | –
2 | CCCS(=O)(=O)Nc1ccc(F)c(C(=O)c2c[nH]c3nccc(NC4CCOCC4)c23)c1F [P-2013, Propane-1-sulfonic acid {2,4-difluoro-3-[4-(tetrahydro-pyran-4-ylamino)-1H-pyrrolo[2,3-b]pyridine-3-carbonyl]-phenyl}-amide] | – | – | > 10 µM
